Patent US20140228682A1, “IMAGING PROBES, IMAGING SYSTEMS, AND METHODS OF IMAGING” (priority 2013, published 2014)

Assays:
cartilage = experiment: small animal PET imaging of cartilage / osteoarthritis joints in mice
Method: The mice were injected with ^89Zirconium oxalate through tail vein and then imaged by small animal PET.
The mice were injected with tracer through tail vein and then imaged at 5 days post-injection by small animal PET (left two columns of images) and optical imaging instrument (in vivo and ex vivo) (right two columns images).

[1] = mice; 100-200 times the contemplated dose per kilogram in man

Q: For ^89Zr oxalate, which “time needed for the probe to accumulate in cartilage” value (cartilage) is on record?
A: Its value is “about five”.

Q: What about the “ill-effects observed in animals” value [1] of the same substance?
A: Its value is “No ill-effects”.

Q: And the tolerability [1]?
A: The tolerability was “well tolerated”.
